# Measurements reported in patent US12286443B2, “Bycyclic JAK inhibitors and uses thereof” (Insilico Medicine IP Limited, priority 2019, dated 2025).
# Amino acid sequences for entries named in this document (tags omitted).
# UniProt P52333, whole entry: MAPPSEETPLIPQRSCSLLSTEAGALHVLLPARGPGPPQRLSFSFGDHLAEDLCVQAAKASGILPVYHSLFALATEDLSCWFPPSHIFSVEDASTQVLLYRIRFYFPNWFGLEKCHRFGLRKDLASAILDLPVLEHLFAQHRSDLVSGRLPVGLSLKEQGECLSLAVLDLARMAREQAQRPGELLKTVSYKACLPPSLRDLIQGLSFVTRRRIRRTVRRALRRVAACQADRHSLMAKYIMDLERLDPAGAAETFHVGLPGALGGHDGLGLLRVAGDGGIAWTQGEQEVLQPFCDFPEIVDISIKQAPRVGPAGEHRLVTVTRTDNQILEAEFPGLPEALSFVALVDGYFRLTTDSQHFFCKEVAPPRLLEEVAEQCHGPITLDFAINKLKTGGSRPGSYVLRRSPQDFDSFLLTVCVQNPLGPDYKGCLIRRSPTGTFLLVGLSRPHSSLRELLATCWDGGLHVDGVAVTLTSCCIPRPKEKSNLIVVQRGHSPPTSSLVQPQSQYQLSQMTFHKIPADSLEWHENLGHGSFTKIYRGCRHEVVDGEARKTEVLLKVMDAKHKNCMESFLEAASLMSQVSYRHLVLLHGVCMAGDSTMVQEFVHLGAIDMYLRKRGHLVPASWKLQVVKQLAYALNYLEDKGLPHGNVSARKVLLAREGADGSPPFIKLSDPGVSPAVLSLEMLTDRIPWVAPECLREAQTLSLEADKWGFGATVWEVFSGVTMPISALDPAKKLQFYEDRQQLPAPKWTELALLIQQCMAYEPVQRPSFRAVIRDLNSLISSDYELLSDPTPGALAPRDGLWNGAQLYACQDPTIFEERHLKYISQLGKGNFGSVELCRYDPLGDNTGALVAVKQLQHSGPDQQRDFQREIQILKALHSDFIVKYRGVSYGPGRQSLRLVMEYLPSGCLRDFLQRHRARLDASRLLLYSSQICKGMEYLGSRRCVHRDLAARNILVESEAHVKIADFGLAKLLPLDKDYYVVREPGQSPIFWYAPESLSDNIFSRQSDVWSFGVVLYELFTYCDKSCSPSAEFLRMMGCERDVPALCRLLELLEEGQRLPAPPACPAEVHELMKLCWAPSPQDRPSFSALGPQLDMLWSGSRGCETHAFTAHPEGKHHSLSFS
# UniProt O60674, whole entry: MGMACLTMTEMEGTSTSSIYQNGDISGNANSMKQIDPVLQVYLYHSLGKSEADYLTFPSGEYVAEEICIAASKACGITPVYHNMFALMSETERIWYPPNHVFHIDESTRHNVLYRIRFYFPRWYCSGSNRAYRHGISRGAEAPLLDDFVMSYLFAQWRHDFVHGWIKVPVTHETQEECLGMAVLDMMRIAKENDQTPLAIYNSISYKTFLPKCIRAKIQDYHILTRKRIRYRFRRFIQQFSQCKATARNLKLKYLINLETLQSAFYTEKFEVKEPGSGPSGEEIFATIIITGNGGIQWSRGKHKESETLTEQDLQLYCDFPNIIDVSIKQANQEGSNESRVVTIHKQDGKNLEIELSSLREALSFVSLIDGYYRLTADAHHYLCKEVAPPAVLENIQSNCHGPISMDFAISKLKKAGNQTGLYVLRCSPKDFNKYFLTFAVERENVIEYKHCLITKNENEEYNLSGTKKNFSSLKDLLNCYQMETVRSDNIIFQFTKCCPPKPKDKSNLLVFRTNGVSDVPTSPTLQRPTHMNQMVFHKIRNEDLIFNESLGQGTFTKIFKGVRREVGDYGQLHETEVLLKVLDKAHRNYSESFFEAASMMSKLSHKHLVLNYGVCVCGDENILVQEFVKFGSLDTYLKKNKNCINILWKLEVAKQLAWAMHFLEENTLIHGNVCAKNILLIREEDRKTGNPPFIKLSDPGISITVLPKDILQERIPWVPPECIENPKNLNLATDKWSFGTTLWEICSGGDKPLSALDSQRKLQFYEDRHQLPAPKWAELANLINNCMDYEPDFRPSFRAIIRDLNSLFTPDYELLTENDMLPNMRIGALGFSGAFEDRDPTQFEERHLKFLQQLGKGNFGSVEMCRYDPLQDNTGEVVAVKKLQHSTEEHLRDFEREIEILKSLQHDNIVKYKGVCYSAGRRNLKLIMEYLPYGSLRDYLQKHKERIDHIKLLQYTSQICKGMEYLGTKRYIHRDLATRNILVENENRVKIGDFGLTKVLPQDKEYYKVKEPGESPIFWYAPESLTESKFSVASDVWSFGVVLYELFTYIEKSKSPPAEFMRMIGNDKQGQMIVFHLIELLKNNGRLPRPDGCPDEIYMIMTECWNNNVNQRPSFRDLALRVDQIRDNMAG
# UniProt P23458, whole entry: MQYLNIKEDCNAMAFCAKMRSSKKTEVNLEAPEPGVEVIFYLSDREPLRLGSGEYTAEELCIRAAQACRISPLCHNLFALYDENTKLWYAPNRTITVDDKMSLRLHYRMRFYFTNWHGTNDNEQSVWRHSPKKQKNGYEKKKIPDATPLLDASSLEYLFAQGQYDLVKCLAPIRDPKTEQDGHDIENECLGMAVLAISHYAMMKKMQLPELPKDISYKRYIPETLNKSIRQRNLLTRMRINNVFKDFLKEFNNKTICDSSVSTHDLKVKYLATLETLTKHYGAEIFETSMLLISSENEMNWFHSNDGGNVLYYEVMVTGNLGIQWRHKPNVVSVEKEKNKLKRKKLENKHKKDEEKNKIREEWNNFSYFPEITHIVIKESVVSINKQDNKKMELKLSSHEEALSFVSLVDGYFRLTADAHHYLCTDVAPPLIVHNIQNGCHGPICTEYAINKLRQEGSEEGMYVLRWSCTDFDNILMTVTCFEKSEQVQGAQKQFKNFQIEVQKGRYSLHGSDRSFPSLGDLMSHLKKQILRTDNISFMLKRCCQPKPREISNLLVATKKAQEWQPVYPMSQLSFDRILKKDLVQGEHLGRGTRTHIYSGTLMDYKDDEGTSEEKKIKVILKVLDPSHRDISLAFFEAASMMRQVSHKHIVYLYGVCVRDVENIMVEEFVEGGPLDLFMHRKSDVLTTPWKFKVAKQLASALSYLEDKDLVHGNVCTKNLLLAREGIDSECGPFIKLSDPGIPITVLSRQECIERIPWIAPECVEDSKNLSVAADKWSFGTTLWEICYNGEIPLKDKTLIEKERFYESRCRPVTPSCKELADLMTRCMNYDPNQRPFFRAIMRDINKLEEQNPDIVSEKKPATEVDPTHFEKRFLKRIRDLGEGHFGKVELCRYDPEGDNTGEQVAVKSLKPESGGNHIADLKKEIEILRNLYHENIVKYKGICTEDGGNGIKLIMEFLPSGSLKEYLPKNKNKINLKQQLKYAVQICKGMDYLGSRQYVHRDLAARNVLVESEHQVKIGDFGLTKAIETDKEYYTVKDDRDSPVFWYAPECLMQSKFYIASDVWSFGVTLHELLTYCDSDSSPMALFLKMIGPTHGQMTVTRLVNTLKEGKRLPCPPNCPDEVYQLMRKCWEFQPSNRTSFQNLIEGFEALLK
# UniProt P29597, whole entry: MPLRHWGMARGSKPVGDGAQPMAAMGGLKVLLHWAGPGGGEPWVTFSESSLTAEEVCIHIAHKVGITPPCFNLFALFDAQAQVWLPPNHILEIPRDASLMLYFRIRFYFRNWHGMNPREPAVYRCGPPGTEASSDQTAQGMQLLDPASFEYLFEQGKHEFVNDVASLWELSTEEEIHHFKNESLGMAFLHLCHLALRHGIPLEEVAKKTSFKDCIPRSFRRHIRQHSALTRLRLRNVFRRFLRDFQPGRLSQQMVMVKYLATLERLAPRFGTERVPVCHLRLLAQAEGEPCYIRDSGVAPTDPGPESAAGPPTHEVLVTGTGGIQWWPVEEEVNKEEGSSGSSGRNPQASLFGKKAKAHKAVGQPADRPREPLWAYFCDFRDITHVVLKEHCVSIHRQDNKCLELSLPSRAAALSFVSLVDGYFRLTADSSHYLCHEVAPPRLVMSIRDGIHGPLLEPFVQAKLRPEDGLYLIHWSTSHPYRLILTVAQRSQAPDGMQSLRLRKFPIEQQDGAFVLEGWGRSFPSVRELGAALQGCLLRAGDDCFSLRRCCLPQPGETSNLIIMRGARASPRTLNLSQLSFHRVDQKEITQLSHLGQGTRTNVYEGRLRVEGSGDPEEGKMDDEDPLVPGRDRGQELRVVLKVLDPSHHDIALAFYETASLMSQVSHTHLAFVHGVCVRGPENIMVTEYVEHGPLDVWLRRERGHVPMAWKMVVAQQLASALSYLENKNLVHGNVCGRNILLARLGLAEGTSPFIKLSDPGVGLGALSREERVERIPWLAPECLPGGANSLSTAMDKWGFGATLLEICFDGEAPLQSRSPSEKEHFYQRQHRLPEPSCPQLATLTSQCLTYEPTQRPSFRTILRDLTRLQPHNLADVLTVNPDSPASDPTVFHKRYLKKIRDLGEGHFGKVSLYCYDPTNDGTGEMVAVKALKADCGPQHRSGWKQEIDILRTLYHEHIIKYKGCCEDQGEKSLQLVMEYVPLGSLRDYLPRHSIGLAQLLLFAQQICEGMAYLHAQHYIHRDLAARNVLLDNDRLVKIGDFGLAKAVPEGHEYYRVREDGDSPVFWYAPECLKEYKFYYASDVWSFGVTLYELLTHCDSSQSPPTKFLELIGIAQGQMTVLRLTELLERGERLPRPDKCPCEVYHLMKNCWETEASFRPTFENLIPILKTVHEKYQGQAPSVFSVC
# Key:
# JAK3 = JAK3 (Homo sapiens, UniProt P52333); test: Inhibition of JAK3 kinase, LANCE Ultra TR-FRET assay; settings: read-out: Jak3 IC50, 2x ATP 8 μM, 15 min pre-incubation, 90 min reaction, 23° C.
# Method: (§1) Exemplary compounds were assayed to determine potency in inhibiting activity of JAK1-3 and TYK2 kinases by determining IC50 values.
# (§2) The sources of test materials and equipment are as follows: JAK1 (Invitrogen, Cat. No PV4775), JAK2 (Invitrogen, Cat. No PV4210), JAK3 (Invitrogen, Cat. No PV4080), TYK2 (Invitrogen, Cat. No PR8440C), ATP (Sigma, Cat. No. A7699-1G), DMSO (Sigma, Cat. No. D2650), DTT (Sigma, Cat. No. 43815), 384 wells_compound plate (Greiner, Cat. No. 781280), 384 wells_assay plate (Perkin Elmer, Cat. No. 6007299), LANCE Ultra ULight™-JAK-1 peptide (Perkin Elmer, Cat. No. TRF0121), LANCET™ Eu-W1024 Anti-phosphotyrosine (PT66) (Perkin Elmer, Cat. No. AD0069), LANCET™ Detection Buffer(Perkin Elmer, Cat. No. CR97-100).
# (§3) The concentrations of test compounds varied from 100 μM to 1.7 nM with 3-fold dilution, 11 points, in duplicates while the concentrations of the reference compound, Tofacitinib, varied from 1 μM to 0.017 nM with 3-fold dilution, 11 points, in duplicates. […]
# (§4) Prior to the assay, enzyme, peptide substrate and serially diluted test compounds were pre-incubated together in assay buffer (5 μL) for 15 minutes (peptide substrate concentration: 50 nM; JAK enzyme concentrations: 2 nM JAK1; […]; 80 μM JAK3 and 4 nM TYK2). […] The plate is analyzed by Perkin Elmer Envision on TR-FRET mode. […]
# JAK2 = JAK2 (Homo sapiens, UniProt O60674); test: Inhibition of JAK2 kinase, LANCE Ultra TR-FRET assay; settings: read-out: Jak2 IC50, 2x ATP 24 μM, 15 min pre-incubation, 90 min reaction, 23° C.
# Method: as §1, §2, §3, §4
# JAK1 = JAK1 (Homo sapiens, UniProt P23458); test: Inhibition of JAK1 kinase, LANCE Ultra TR-FRET assay; settings: read-out: Jak1 IC50, 2 nM JAK1, 2x ATP 76 μM, 15 min pre-incubation, 90 min reaction, 23° C.
# Method: as §1, §2, §3, §4
# TYK2 = TYK2 (Homo sapiens, UniProt P29597); test: Inhibition of TYK2 kinase, LANCE Ultra TR-FRET assay; settings: read-out: tyk IC50, 4 nM TYK2, 2x ATP 30 μM, 15 min pre-incubation, 90 min reaction, 23° C.
# Method: as §1, §2, §3, §4
smiles,measurement,setting,value
O=C(NCc1ncco1)c1noc2c1CN(c1ncnc3[nH]ccc13)CC2,IC50,JAK3,100 to 500 nM
same,IC50,JAK2,500 to 2000 nM
same,IC50,JAK1,500 to 2000 nM
same,IC50,TYK2,> 2000 nM
